Screens (PubChem BioAssay)
In the library only some 1.7% were active in any assay of this set; here they are far more common.
CDK5 p35 inh – inhibitors of human CDK5/p35 kinase; actives 0.01% (n = 330,000); AID 488839; Recombinant CDK5/p35, ADP-Glo luminescence, 60 min; inhibition, % at 10 µM;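 active = highest replicate inhibition of at least 50% and at least 75% of replicates reaching 50%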;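 note: plate controls were DMSO neutral control for no effect and GW8510 at 10 µM for full effect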
CAL PDZ FP-1 – blocks peptide binding to human CAL PDZ domain; Q9HD26; purified CAL PDZ, TMR-peptide fluorescence polarization, 1 h; inhibition, % at 20 µM; actives 0.02% (n = 330,000); AID 504414;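 active = highest replicate inhibition of at least 40%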;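 note: plate controls were DMSO neutral control wells for no effect and unlabeled competitor peptide control wells for full effect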
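Material – purified CerCALP PDZ construct · Detection – FP readout, S and P plane fluorescence · Measure – percent inhibition from loss of millipolarization · Controls – unlabelled peptide for full inhibition, DMSO wells as neutral · Probe or stimulus – TMR-labelled reporter peptide T*-PRC34 bound in PDZ groove · Times – 1 h at RT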
CAL PDZ FP-2 – blocks peptide binding to the human CAL PDZ domain; purified CAL PDZ, TMR-peptide fluorescence polarization, 1 h; inhibition, % at 24.9 µM; Q9HD26; actives 0.92% (n = 300,000);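 active = mean inhibition of at least 30% with at least half of replicates also reaching 30%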;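 note: 0% = DMSO neutral control and 100% = excess unlabeled competitor peptide PRC23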
Yeast UUG start – modulators of yeast start codon fidelity, primary screen, whole organism, S. cerevisiae, single point, plate reader; S. cerevisiae UUG-firefly luciferase reporter, luminescence/redox ratio; activity score, % at 18.7 µM; 0.13% of 350,000 active; AID 602363, 2012;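 active = replicate mean at a twofold rise or more, about +100% in these data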;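 also: firefly luciferase made from a UUG start codon reports start codon fidelity; reporter light over untreated wells divided by growth signal over untreated wells; some hits fall short of that in this replicate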
dFosB act-1 – activators of mouse delta FosB homodimer | AID 493131 | actives 0.99% (n = 340,000) | P13346 | activation, % at 25 µM | purified delta FosB, TAMRA-CDK5 oligo fluorescence polarization; percent of positive-control signal above neutral wells;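 active = mean activation above about 17%, with every replicate also reaching it, limit read from the data, passing the limit was not always enough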
Dyrk1A ADPGlo – blocks rat Dyrk1A kinase activity. Q63470. ADP-Glo luminescence, NFATc1 peptide. inhibition, % at 12.5 µM. actives 0.43% (n = 310,000); in the data active = inhibition above about 50%;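 note: plate controls were vehicle with enzyme for no effect and no enzyme for full effect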
dFosB act-2 – activators of mouse delta FosB homodimer DNA binding | shares compounds with dFosB act-1 | activation, % at 24.9 µM | purified delta FosB, TAMRA-CDK5 oligo fluorescence polarization; normalised: neutral wells 0, positive control 100 | AID 588690 | 2,400 tested, under 10 active;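 active = highest replicate activation at or above 34% and every replicate reaching that threshold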;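 note: higher polarization means more probe DNA bound by delta FosB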
The depositor's hits bear a star; x = no result given.

1) CCOC(=O)c1nn(-c2ccccc2)c(=O)cc1OCC(=O)Nc1cc(C)ccc1OC
2) Cn1c(=O)cc(OCCCC(=O)Nc2ccc3c(c2)OCCO3)c2ccccc21
3) COc1ccc(NC(=O)CNC(=O)Cn2c(C)cc3ccccc3c2=O)cc1OC
4) Cc1cc2ccccc2c(=O)n1CC(=O)Nc1ccc2c(c1)OCCO2
5) CCc1ccc(NC(=O)CCCOc2cc(=O)n(C)c3ccccc23)cc1
6) CN1c2ccc(-c3ccc(C#N)cc3)cc2[C@H]2[C@H](CCN2C(=O)NC2CCCC2)[C@@H]1CO

assay / compound | 1 | 2 | 3 | 4 | 5 | 6
CDK5 p35 inh | 0.5 | -1.0 | -0.1 | -0.9 | x | x
CAL PDZ FP-1 | -1.5 | -0.2 | -1.3 | -2.0 | x | x
CAL PDZ FP-2 | -2.3 | x | -4.4 | -6.6 | x | x
Yeast UUG start | -9.5 | 13.7 | x | -10.7 | -20.7 | -11.4
dFosB act-1 | 22.5* | 43.8* | 9.7 | 18.8* | x | x
Dyrk1A ADPGlo | -8.2 | -1.8 | x | -2.1 | x | x
dFosB act-2 | 5.5 | 2.1 | x | 0.4 | x | x

7) CCOC(=O)c1c(C)nc2sc(C(=O)Nc3ccc(C(C)=O)cc3)c(N)c2c1-c1ccc(OC)cc1
8) O=C(Cn1cnc2sc3c(c2c1=O)CCCC3)NCC(=O)Nc1c(F)cccc1F
9) O=C(CNC(=O)Cn1cnc2sc3c(c2c1=O)CCCC3)NCc1ccccn1
10) O=C(CN1C(=O)S/C(=C\c2ccccn2)C1=O)Nc1ccc(F)cc1
11) O=C(CN1C(=O)S/C(=C\c2ccccn2)C1=O)Nc1ccccc1
12) Cc1ccc(NC(=O)CN2C(=O)S/C(=C\c3cccn3C)C2=O)cc1

assay / compound | 7 | 8 | 9 | 10 | 11 | 12
CDK5 p35 inh | 0.4 | -4.5 | -0.6 | -1.7 | -0.5 | 2.7
CAL PDZ FP-1 | -1.6 | -3.1 | -2.5 | -2.3 | -0.2 | -0.6
CAL PDZ FP-2 | 1.2 | 0.4 | -16.6 | -4.0 | x | -3.6
Yeast UUG start | x | -17.6 | -19.7 | -11.0 | -4.7 | -14.2
dFosB act-1 | 18.7* | 31.8* | 1.0 | 48.2* | 60.5* | -0.5
Dyrk1A ADPGlo | -3.0 | 1.4 | -2.2 | -3.6 | 4.2 | -4.1
dFosB act-2 | -0.5 | 0.3 | x | 0.8 | 4.9 | x

13) O=C(CN1C(=O)c2ccccc2C1=O)Nc1ccccc1
14) Cc1ccc(NC(=O)CN2C(=O)c3ccccc3C2=O)cc1
15) O=C(CN1C(=O)S/C(=C\C=C\c2ccccc2)C1=O)Nc1ccc(O)cc1
16) O=C(Nc1ccccc1)N[C@@H]1CC[C@H](CCn2cc(C3(O)CCCC3)nn2)O[C@H]1CO
17) N#Cc1cccc(-c2ccc([C@@H]3[C@H](CO)N4CCCCN(C(=O)Nc5cccc(F)c5)C[C@@H]34)cc2)c1
18) CCOc1cc(/C=C2/NC(=O)N(CC(=O)Nc3cccc(C)c3)C2=O)ccc1O

assay / compound | 13 | 14 | 15 | 16 | 17 | 18
CDK5 p35 inh | -3.9 | -1.0 | 2.1 | x | x | 0.5
CAL PDZ FP-1 | -4.2 | -0.7 | -1.7 | x | x | -0.1
CAL PDZ FP-2 | x | -3.6 | -1.3 | x | x | -1.5
Yeast UUG start | -0.3 | -5.8 | -16.3 | 12.6 | -4.9 | -1.7
dFosB act-1 | 24.0* | 1.9 | 61.4* | x | x | 19.4*
Dyrk1A ADPGlo | 4.1 | 8.2 | x | x | x | -3.4
dFosB act-2 | -1.4 | x | 8.4 | x | x | 4.5

Look-ups from above:
Reading of `Cc1cc2ccccc2c(=O)n1CC(=O)Nc1ccc2c(c1)OCCO2` in CDK5 p35 inh: -0.9
Reading of `O=C(CN1C(=O)c2ccccc2C1=O)Nc1ccccc1` in CDK5 p35 inh: -3.9
Reading of `Cc1ccc(NC(=O)CN2C(=O)c3ccccc3C2=O)cc1` in CAL PDZ FP-2: -3.6

Following part
19) Cc1cccc(NC(=O)CN2C(=O)S/C(=C\c3ccccn3)C2=O)c1
20) CCOc1cc(/C=C2/NC(=O)N(CC(=O)Nc3cccc(C)c3)C2=O)ccc1OC
21) COc1cccc(CNC(=O)C[C@@H]2C=C[C@@H](NC(=O)C3CC3)[C@@H](CO)O2)c1
22) CN(C)S(=O)(=O)c1ccc(S(=O)(=O)NCc2ccc3c(c2)OCO3)cc1
23) O=S(=O)(NCc1ccc2c(c1)OCO2)c1ccc(F)cc1
24) CO[C@H]1CN(C)C(=O)c2cc(NC(=O)C3CC3)ccc2OC[C@H](C)N(C)C[C@@H]1C

assay / compound | 19 | 20 | 21 | 22 | 23 | 24
CDK5 p35 inh | -2.9 | -1.1 | x | 1.1 | 1.3 | x
CAL PDZ FP-1 | -0.3 | 0.9 | x | -0.4 | -1.6 | x
CAL PDZ FP-2 | x | -3.6 | x | x | x | x
Yeast UUG start | x | -5.1 | -0.4 | -25.4 | -15.7 | 0.2
dFosB act-1 | 40.7* | -6.3 | x | 36.4* | 6.1 | x
Dyrk1A ADPGlo | -6.3 | 1.1 | x | 7.1 | -1.8 | x
dFosB act-2 | 4.1 | x | x | -6.3 | x | x

25) Cc1c(C(=O)OCC(O)=C(C#N)c2nc3ccccc3[nH]2)oc2ccc(Br)cc12
26) N#CC(=C(O)COC(=O)c1ccc2c(c1)OCCO2)c1nc2ccccc2[nH]1
27) COc1cc(OC)cc(C(=O)OC/C(O)=C(\C#N)c2nc3ccccc3[nH]2)c1
28) Cc1c(C(=O)OC/C(O)=C(\C#N)c2nc3ccccc3[nH]2)oc2ccccc12

assay / compound | 25 | 26 | 27 | 28
CDK5 p35 inh | 3.3 | 1.4 | 0.6 | 2.8
CAL PDZ FP-1 | -0.7 | -1.3 | -1.2 | -0.3
CAL PDZ FP-2 | -1.6 | 1.7 | -8.8 | -3.0
Yeast UUG start | x | x | -16.0 | -4.5
dFosB act-1 | -1.4 | 7.2 | 40.3* | 45.2*
Dyrk1A ADPGlo | 8.5 | 3.4 | 3.5 | -4.7
dFosB act-2 | x | x | 4.4 | -9.0
